# Source: ChEMBL document CHEMBL4342520, “Discovery, Structure-Activity Relationship, and Biological Activity of Histone-Competitive Inhibitors of Histone Acetyltransferases P300/CBP” (J Med Chem, 2020)
# Amino acid sequences for entries named in this document (tags omitted).
# UniProt Q09472, whole entry: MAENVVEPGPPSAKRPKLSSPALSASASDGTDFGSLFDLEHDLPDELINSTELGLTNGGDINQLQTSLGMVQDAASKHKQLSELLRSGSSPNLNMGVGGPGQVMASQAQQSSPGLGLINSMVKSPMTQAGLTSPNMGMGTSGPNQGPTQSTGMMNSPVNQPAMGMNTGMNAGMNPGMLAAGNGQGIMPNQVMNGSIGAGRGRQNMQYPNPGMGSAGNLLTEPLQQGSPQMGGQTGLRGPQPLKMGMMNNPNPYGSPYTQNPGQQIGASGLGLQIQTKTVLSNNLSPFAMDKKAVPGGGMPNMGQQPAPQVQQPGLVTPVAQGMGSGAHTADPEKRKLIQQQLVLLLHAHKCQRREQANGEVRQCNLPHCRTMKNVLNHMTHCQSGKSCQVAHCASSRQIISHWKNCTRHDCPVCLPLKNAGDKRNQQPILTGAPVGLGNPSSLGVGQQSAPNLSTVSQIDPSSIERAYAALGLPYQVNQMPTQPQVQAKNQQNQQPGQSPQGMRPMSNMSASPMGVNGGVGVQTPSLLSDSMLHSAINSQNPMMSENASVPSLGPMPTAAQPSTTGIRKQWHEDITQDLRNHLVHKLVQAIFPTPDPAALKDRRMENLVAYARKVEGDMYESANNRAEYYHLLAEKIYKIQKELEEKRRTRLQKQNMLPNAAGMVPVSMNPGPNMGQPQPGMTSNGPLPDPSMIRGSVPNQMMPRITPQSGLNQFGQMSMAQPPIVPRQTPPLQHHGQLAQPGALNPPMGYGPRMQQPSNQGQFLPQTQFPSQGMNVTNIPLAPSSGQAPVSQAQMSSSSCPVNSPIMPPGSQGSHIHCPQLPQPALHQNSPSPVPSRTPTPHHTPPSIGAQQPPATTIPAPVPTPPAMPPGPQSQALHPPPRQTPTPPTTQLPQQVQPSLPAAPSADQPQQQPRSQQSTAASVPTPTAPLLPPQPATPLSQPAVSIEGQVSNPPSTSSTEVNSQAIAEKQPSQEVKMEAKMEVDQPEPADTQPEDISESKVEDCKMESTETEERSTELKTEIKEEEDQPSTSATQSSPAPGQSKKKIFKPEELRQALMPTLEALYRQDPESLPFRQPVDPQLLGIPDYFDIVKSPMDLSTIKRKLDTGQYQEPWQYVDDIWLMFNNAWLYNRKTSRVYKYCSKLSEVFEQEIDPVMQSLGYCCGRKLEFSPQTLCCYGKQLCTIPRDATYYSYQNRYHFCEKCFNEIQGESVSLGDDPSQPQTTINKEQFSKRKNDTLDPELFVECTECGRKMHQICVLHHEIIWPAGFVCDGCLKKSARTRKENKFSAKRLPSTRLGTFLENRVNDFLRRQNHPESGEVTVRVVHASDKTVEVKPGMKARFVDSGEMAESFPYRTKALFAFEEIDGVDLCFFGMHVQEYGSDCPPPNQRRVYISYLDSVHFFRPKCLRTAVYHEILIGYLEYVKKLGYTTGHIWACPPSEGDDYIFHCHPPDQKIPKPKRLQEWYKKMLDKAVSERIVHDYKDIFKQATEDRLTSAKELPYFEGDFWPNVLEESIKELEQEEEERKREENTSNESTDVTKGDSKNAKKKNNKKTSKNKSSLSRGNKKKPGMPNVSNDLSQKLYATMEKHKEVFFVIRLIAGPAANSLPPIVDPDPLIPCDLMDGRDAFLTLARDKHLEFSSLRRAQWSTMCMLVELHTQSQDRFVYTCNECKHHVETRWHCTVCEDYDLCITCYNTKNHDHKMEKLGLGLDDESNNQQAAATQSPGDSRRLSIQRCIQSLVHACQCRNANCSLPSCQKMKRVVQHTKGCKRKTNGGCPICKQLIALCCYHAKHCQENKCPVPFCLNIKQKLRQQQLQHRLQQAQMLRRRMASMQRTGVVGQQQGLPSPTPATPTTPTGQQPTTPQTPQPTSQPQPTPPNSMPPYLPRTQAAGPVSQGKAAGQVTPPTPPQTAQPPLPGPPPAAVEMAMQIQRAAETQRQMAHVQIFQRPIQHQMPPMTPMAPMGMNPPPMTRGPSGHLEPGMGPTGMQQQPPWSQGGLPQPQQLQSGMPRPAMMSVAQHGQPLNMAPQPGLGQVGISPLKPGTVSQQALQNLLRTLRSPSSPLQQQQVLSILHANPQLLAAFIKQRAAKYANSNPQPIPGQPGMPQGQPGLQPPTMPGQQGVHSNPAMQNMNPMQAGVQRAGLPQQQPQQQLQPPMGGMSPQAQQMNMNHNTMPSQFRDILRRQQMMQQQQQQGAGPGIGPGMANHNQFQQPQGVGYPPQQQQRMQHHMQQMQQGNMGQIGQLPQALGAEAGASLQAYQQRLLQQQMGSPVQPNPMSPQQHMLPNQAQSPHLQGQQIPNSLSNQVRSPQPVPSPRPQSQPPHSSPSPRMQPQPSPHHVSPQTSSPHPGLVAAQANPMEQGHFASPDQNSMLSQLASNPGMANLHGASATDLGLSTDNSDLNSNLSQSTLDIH
# UniProt Q92793, whole entry, looked up: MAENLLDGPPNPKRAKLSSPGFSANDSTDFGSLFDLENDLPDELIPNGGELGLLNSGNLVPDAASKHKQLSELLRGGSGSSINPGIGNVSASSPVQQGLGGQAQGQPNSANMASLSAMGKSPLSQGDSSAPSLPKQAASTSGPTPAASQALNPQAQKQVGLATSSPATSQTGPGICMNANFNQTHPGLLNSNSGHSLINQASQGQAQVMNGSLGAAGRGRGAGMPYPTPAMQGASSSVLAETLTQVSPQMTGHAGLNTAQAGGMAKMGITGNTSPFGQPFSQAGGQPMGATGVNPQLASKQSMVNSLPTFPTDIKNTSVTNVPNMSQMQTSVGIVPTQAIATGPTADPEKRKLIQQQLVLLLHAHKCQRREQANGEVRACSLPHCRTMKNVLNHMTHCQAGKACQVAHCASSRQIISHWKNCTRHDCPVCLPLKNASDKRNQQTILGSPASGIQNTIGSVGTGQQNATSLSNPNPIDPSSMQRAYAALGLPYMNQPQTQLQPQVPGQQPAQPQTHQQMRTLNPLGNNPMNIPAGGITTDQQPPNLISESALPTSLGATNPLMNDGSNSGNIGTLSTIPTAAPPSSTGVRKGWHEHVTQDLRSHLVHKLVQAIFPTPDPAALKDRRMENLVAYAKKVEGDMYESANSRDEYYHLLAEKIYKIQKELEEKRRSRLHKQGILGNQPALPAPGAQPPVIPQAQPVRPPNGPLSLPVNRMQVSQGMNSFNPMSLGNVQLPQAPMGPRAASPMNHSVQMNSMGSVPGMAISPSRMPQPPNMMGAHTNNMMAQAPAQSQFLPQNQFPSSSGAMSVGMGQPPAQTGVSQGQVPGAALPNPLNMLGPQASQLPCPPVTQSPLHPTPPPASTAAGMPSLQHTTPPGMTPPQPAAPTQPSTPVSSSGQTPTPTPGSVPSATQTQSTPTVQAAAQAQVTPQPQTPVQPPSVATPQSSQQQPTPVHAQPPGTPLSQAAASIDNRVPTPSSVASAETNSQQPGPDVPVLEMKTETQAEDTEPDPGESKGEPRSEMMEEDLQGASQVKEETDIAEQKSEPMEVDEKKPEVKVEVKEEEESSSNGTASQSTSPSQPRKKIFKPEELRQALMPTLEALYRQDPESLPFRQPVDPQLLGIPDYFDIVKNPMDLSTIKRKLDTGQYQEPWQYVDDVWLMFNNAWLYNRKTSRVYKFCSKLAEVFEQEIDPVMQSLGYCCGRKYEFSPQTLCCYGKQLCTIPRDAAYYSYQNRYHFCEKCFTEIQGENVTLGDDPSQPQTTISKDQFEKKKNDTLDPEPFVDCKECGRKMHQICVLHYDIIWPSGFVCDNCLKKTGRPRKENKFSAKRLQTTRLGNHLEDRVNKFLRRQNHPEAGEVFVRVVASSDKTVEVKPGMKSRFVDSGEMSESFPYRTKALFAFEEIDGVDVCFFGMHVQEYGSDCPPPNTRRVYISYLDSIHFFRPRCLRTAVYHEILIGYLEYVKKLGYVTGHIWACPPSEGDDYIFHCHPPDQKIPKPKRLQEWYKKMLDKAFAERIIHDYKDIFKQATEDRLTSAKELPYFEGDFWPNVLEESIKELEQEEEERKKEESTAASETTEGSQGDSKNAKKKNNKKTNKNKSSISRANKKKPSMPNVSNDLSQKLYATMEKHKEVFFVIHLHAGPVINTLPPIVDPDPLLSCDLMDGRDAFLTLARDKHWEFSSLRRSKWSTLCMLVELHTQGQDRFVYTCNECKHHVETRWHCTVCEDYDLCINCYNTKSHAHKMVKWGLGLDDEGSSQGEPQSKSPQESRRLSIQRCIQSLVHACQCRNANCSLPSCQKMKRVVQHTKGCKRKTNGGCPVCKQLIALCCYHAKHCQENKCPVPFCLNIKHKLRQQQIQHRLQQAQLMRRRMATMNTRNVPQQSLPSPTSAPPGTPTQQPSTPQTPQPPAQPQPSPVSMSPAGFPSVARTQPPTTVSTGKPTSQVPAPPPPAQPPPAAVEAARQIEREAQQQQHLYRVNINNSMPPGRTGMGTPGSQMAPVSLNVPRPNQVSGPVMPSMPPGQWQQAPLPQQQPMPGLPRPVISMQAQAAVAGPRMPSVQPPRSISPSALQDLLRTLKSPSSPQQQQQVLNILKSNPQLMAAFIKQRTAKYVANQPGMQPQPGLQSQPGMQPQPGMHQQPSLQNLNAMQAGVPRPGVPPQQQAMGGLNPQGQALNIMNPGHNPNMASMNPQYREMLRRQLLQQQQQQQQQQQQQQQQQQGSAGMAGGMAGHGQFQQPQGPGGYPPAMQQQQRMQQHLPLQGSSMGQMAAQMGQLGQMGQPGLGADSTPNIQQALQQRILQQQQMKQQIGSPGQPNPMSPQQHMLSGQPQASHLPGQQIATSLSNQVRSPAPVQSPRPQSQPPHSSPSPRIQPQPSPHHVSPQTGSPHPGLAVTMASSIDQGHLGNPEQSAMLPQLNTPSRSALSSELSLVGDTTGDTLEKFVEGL
# Key:
# [1] = target: T1, Histone acetyltransferase p300 (Homo sapiens, UniProt Q09472); assay: Inhibition of p300 in human MCF7 cells assessed as downregulation of Turashvili-breast lobular carcinoma vs ductal normal dn gene set overexpression at 6 uM incubated for 48 hrs by RNA gene sequencing analysis relative to control; assay type: cell-based
# [2] = target: T1, Histone acetyltransferase p300; assay: Inhibition of p300 in human MCF7 cells assessed as downregulation of pujana-breast cancer with BRACA1 mutated up gene set overexpression at 6 uM incubated for 48 hrs by RNA gene sequencing analysis relative to control; assay type: cell-based
# [3] = target: T1, Histone acetyltransferase p300; assay: Inhibition of p300 in human MCF7 cells assessed as downregulation of Charafe-breast cancer luminal vs mesenchymal up gene set overexpression at 6 uM incubated for 48 hrs by RNA gene sequencing analysis relative to control; assay type: cell-based
# [4] = target: T1, Histone acetyltransferase p300; assay: Inhibition of p300 in human MCF7 cells assessed as estradiol-induced cell cycle related gene expression at 6 uM incubated for 48 hrs by RNA gene sequencing analysis relative to control; assay type: cell-based
# [5] = target: T2, CREB-binding protein/Histone acetyltransferase p300 (Homo sapiens) (UniProt Q09472+Q92793); assay: Inhibition of p300/CBP HAT domain in human Kasumi-1 cells assessed as reduction in H3K9 acetylation incubated for 12 hrs by Western blot analysis; assay type: cell-based
# [6] = target: T1, Histone acetyltransferase p300; assay: Inhibition of p300 in human MCF7 cells assessed as downregulation of poola-invasive breast cancer up gene set overexpression at 6 uM incubated for 48 hrs by RNA gene sequencing analysis relative to control; assay type: cell-based
# [7] = target: T1, Histone acetyltransferase p300; assay: Inhibition of p300 in human MCF7 cells assessed as estradiol-induced S phase related gene expression at 6 uM incubated for 48 hrs by RNA gene sequencing analysis relative to control; assay type: cell-based
# [8] = target: T1, Histone acetyltransferase p300; assay: Inhibition of p300 in human MCF7 cells assessed as estradiol-induced mitotic M/G1 phase related gene expression at 6 uM incubated for 48 hrs by RNA gene sequencing analysis relative to control; assay type: cell-based
# [9] = target: T1, Histone acetyltransferase p300; assay: Inhibition of p300 in human MCF7 cells assessed as estradiol-induced late estrogen response related gene expression at 6 uM incubated for 48 hrs by RNA gene sequencing analysis relative to control; assay type: cell-based
# [10] = target: T1, Histone acetyltransferase p300; assay: Inhibition of p300 in human MCF7 cells assessed as estradiol-induced G1/S transition related gene expression at 6 uM incubated for 48 hrs by RNA gene sequencing analysis relative to control; assay type: cell-based
# [11] = target: T2, CREB-binding protein/Histone acetyltransferase p300 (Homo sapiens); assay: Inhibition of p300/CBP HAT domain in human Kasumi-1 cells assessed as reduction in H3K18 acetylation incubated for 12 hrs by Western blot analysis; assay type: cell-based
# [12] = target: T1, Histone acetyltransferase p300; assay: Inhibition of p300 in human MCF7 cells assessed as downregulation of Vantveer-breast cancer ESR1 up gene set overexpression at 6 uM incubated for 48 hrs by RNA gene sequencing analysis relative to control; assay type: cell-based
# [13] = target: T1, Histone acetyltransferase p300; assay: Inhibition of p300 in human MCF7 cells assessed as estradiol-induced MYC target V1 gene expression at 6 uM incubated for 48 hrs by RNA gene sequencing analysis relative to control; assay type: cell-based
# [14] = target: T1, Histone acetyltransferase p300; assay: Inhibition of p300 in human MCF7 cells assessed as downregulation of Kras 600-lung breast cancer up v1 up gene set overexpression at 6 uM incubated for 48 hrs by RNA gene sequencing analysis relative to control; assay type: cell-based
# [15] = target: T1, Histone acetyltransferase p300; assay: Inhibition of p300 in human MCF7 cells assessed as downregulation of sotiriou-breast cancer grade 1 vs 3 up gene set overexpression at 6 uM incubated for 48 hrs by RNA gene sequencing analysis relative to control; assay type: cell-based
# [16] = target: T1, Histone acetyltransferase p300; assay: Inhibition of p300 in human MCF7 cells assessed as downregulation of Farmer-breast cancer cluster 2 gene set overexpression at 6 uM incubated for 48 hrs by RNA gene sequencing analysis relative to control; assay type: cell-based
# [17] = target: T1, Histone acetyltransferase p300; assay: Inhibition of p300 in human MCF7 cells assessed as estradiol-induced G2M checkpoint related gene expression at 6 uM incubated for 48 hrs by RNA gene sequencing analysis relative to control; assay type: cell-based
# [18] = target: T1, Histone acetyltransferase p300; assay: Inhibition of p300 in human MCF7 cells assessed as downregulation of Vantveer-breast cancer poor prognosis gene set overexpression at 6 uM incubated for 48 hrs by RNA gene sequencing analysis relative to control; assay type: cell-based
# [19] = target: T1, Histone acetyltransferase p300; assay: Inhibition of p300 in human MCF7 cells assessed as downregulation of SMID-breast cancer relapse in bone up gene set overexpression at 6 uM incubated for 48 hrs by RNA gene sequencing analysis relative to control; assay type: cell-based
# [20] = target: T1, Histone acetyltransferase p300; assay: Inhibition of p300 in human MCF7 cells assessed as estradiol-induced early estrogen response related gene expression at 6 uM incubated for 48 hrs by RNA gene sequencing analysis relative to control; assay type: cell-based
# [21] = target: T1, Histone acetyltransferase p300; assay: Inhibition of p300 in human MCF7 cells assessed as estradiol-induced DNA synthesis related gene expression at 6 uM incubated for 48 hrs by RNA gene sequencing analysis relative to control; assay type: cell-based
# [22] = target: T2, CREB-binding protein/Histone acetyltransferase p300 (Homo sapiens); assay: Inhibition of p300/CBP HAT domain in human Kasumi-1 cells assessed as reduction in H3K27 acetylation incubated for 12 hrs by Western blot analysis; assay type: cell-based
# [23] = target: T1, Histone acetyltransferase p300; assay: Inhibition of p300 in human MCF7 cells assessed as downregulation of NIKOLSKY-breast cancer 16P13 amplicon gene set overexpression at 6 uM incubated for 48 hrs by RNA gene sequencing analysis relative to control; assay type: cell-based
# [24] = target: T1, Histone acetyltransferase p300; assay: Inhibition of p300 in human MCF7 cells assessed as downregulation of Yang-breast cancer ESR1 bulk up gene set overexpression at 6 uM incubated for 48 hrs by RNA gene sequencing analysis relative to control; assay type: cell-based
# [25] = target: T1, Histone acetyltransferase p300; assay: Non-competitive inhibition of recombinant human GST-tagged p300 HAT domain (1195 to 1673 residues) expressed in Escherichia coli BL21 codon plus cells using histone H3 (1-21) peptide and increasing concentration of acetyl-CoA as substrate preincubated with enzyme for 10 mins followed by substrate addition and measured after 30 mins by scintillation counting method
# [26] = target: T1, Histone acetyltransferase p300; assay: Inhibition of p300 in human MCF7 cells assessed as estradiol-induced DNA repair related gene expression at 6 uM incubated for 48 hrs by RNA gene sequencing analysis relative to control; assay type: cell-based
# [27] = target: T1, Histone acetyltransferase p300; assay: Inhibition of p300 in human MCF7 cells assessed as estradiol-induced DNA strand elongation related gene expression at 6 uM incubated for 48 hrs by RNA gene sequencing analysis relative to control; assay type: cell-based
# [28] = target: T1, Histone acetyltransferase p300; assay: Inhibition of p300 in human MCF7 cells assessed as downregulation of SMID-breast cancer basal up gene set overexpression at 6 uM incubated for 48 hrs by RNA gene sequencing analysis relative to control; assay type: cell-based
# [29] = target: T1, Histone acetyltransferase p300; assay: Competitive inhibition of recombinant human GST-tagged p300 HAT domain (1195 to 1673 residues) expressed in Escherichia coli BL21 codon plus cells using 2 to 100 uM histone H3 (1-21) peptide and acetyl-CoA as substrate preincubated with enzyme for 10 mins followed by substrate addition and measured after 30 mins by scintillation counting method
# [30] = target: T1, Histone acetyltransferase p300; assay: Inhibition of p300 in human MCF7 cells assessed as downregulation of Kras-breast cancer up v1 up gene set overexpression at 6 uM incubated for 48 hrs by RNA gene sequencing analysis relative to control; assay type: cell-based
# [31] = target: T1, Histone acetyltransferase p300; assay: Inhibition of p300 in human MCF7 cells assessed as downregulation of Doane-breast cancer ESR1 up gene set overexpression at 6 uM incubated for 48 hrs by RNA gene sequencing analysis relative to control; assay type: cell-based
# [32] = target: T1, Histone acetyltransferase p300; assay: Inhibition of p300 in human MCF7 cells assessed as estradiol-induced DNA unwinding related gene expression at 6 uM incubated for 48 hrs by RNA gene sequencing analysis relative to control; assay type: cell-based
# [33] = target: T1, Histone acetyltransferase p300; assay: Inhibition of p300 in human MCF7 cells assessed as downregulation of Naderi-breast cancer prognosis up gene set overexpression at 6 uM incubated for 48 hrs by RNA gene sequencing analysis relative to control; assay type: cell-based
# [34] = target: T1, Histone acetyltransferase p300; assay: Inhibition of p300 in human MCF7 cells assessed as estradiol-induced DNA replication related gene expression at 6 uM incubated for 48 hrs by RNA gene sequencing analysis relative to control; assay type: cell-based
# [35] = target: T1, Histone acetyltransferase p300; assay: Inhibition of p300 in human MCF7 cells assessed as downregulation of SMID-breast cancer luminal B up gene set overexpression at 6 uM incubated for 48 hrs by RNA gene sequencing analysis relative to control; assay type: cell-based
# [36] = target: T1, Histone acetyltransferase p300; assay: Inhibition of p300 in human MCF7 cells assessed as estradiol-induced G1/S phase related gene expression at 6 uM incubated for 48 hrs by RNA gene sequencing analysis relative to control; assay type: cell-based
# [37] = target: T1, Histone acetyltransferase p300; assay: Inhibition of p300 in human MCF7 cells assessed as downregulation of Honrado-breast cancer BRCA1 vs BRCA2 up gene set overexpression at 6 uM incubated for 48 hrs by RNA gene sequencing analysis relative to control; assay type: cell-based
# [38] = target: T1, Histone acetyltransferase p300; assay: Inhibition of p300 in human MCF7 cells assessed as downregulation of Finetti-breast cancer kinome red gene set overexpression at 6 uM incubated for 48 hrs by RNA gene sequencing analysis relative to control; assay type: cell-based
# [39] = target: T1, Histone acetyltransferase p300; assay: Inhibition of p300 in human MCF7 cells assessed as downregulation of NIKOLSKY-breast cancer 19Q13.1 amplicon gene set overexpression at 6 uM incubated for 48 hrs by RNA gene sequencing analysis relative to control; assay type: cell-based
# [40] = target: T1, Histone acetyltransferase p300; assay: Inhibition of p300 in human MCF7 cells assessed as downregulation of SMID-breast cancer relapse in brain up gene set overexpression at 6 uM incubated for 48 hrs by RNA gene sequencing analysis relative to control; assay type: cell-based
# [41] = target: T1, Histone acetyltransferase p300; assay: Inhibition of p300 in human MCF7 cells assessed as estradiol-induced E2F gene expression at 6 uM incubated for 48 hrs by RNA gene sequencing analysis relative to control; assay type: cell-based
# [42] = target: T1, Histone acetyltransferase p300; assay: Inhibition of p300 in human MCF7 cells assessed as estradiol-induced mitotic cell cycle related gene expression at 6 uM incubated for 48 hrs by RNA gene sequencing analysis relative to control; assay type: cell-based
# [43] = target: T1, Histone acetyltransferase p300; assay: Inhibition of p300 in human MCF7 cells assessed as downregulation of pujana-breast cancer lit int network gene set overexpression at 6 uM incubated for 48 hrs by RNA gene sequencing analysis relative to control; assay type: cell-based
smiles,measurement,setting,value
CC(C)(C)c1ccc(-c2cc(CNCC3CCNCC3)sc2-c2ccc(C(C)(C)C)cc2)cc1,fold change (FC),[1],1.59
same,fold change (FC),[2],3.19
same,fold change (FC),[3],1.69
same,fold change (FC),[4],-4.36
same,inhibition,[5],Dose-dependent effect
same,fold change (FC),[6],2.48
same,fold change (FC),[7],-2.41
same,fold change (FC),[8],-3.25
same,fold change (FC),[9],-2.78
same,fold change (FC),[10],-2.41
same,inhibition,[11],Dose-dependent effect
same,fold change (FC),[12],1.81
same,fold change (FC),[13],-2.95
same,fold change (FC),[14],1.82
same,fold change (FC),[15],4.66
same,fold change (FC),[16],1.97
same,fold change (FC),[17],-3.85
same,fold change (FC),[18],2.16
same,fold change (FC),[19],2.46
same,fold change (FC),[20],-1.98
same,fold change (FC),[21],-2.22
same,inhibition,[22],Dose-dependent effect
same,fold change (FC),[23],2.44
same,fold change (FC),[24],2.04
same,inhibition,[25],Active
same,fold change (FC),[26],-2.36
same,fold change (FC),[27],-3.24
same,fold change (FC),[28],2.52
same,inhibition,[29],Active
same,fold change (FC),[30],1.61
same,fold change (FC),[31],2.06
same,fold change (FC),[32],-2.2
same,fold change (FC),[33],1.58
same,fold change (FC),[34],-3.65
same,fold change (FC),[35],2.34
same,fold change (FC),[36],-2.59
same,fold change (FC),[37],1.58
same,fold change (FC),[38],2.25
same,fold change (FC),[39],1.53
same,fold change (FC),[40],1.79
same,fold change (FC),[41],-5.33
same,fold change (FC),[42],-3.75
same,fold change (FC),[43],2.13

# The source made the active and inactive calls. The calls are words filed in the database; no cut-off is given here.
